Assay results published in PubChem BioAssay AID504692 (The Scripps Research Institute Molecular Screening Center, 2011).
Only a part is listed here, and it is no random draw. The source made the active and inactive calls. No stated cut-off is given here; in the data, active means activation mostly above about 9.5% (no sharp cut-off); inactive means mostly below about 7.6%.

Amino acid sequences for entries named in this document (tags omitted).
UniProt P47898, whole entry, looked up: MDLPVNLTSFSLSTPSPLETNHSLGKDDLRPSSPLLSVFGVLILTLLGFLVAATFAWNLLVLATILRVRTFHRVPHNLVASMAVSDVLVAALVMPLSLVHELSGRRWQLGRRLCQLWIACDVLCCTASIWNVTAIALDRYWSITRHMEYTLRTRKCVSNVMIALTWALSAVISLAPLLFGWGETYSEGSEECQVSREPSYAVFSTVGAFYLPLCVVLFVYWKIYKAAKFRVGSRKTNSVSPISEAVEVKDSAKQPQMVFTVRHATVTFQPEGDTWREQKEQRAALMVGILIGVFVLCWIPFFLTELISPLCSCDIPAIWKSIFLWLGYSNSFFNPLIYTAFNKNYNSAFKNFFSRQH

The compounds below were run against 5-hydroxytryptamine receptor 5A (Homo sapiens) (UniProt P47898) (assay: HTR5A agonists in luminescence cell assay, primary screen, counter-screen for OPRM1-OPRD1 heterodimer agonist project, full-deck HTS (AID 504692;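 further: 0% = cells with vehicle only and 100% = reference agonist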)). Conditions: cell-based, at 9.3 µM, stronger effect = higher value.

| Structure (SMILES) | activation |
| --- | --- |
| O=P1(N(CCCl)CCCl)OCCCS1 (stereo unspecified) | inactive: 0.05% |
| O=[N+]([O-])c1ccccc1NC1CCN(Cc2ccccc2)CC1 | inactive: 5.48% |
| CC(C)[C@H](NC(=O)N1CCn2c1nc1ccccc12)C(=O)N[C@H](C(=O)O)c1ccccc1 | inactive: 2.01% |
| O=C(Cn1cnc2ccccc21)NCCCN1CCOCC1 | inactive: -2.95% |
| Cn1c(=O)n(Cc2ccc(Cl)cc2)c(=O)c2c1nc1n2CCN1Cc1ccco1 | inactive: 2.98% |
| Cn1c(=O)c2ncn(CC(=O)NC3CCCCCC3)c2n(C)c1=O | inactive: -6.17% |
| CC(C)[C@H](NC(=O)N1CCn2c1nc1ccccc12)C(=O)NCc1ccc2c(c1)OCO2 | inactive: 5.51% |
| COc1ccc(CNC(=O)Cn2cnc3c(=O)n(C)c(=O)n(C)c32)cc1 | inactive: 0.78% |
| Cn1c(=O)[nH]c(=O)c2c1nc(SCc1ccccc1Cl)n2CC(N)=O | inactive: -0.82% |
| Cc1ccc2c(c1)[C@@H]1CN(C)CC[C@@H]1N2S(=O)(=O)c1ccc(F)cc1 | inactive: -11.6% |
| COc1ccccc1NS(=O)(=O)c1cc(NC(=O)Cn2cnc3c2c(=O)n(C)c(=O)n3C)ccc1C | inactive: 0.52% |
| O=C(c1ccco1)N1CCn2c1nc1ccccc12 | inactive: 2.6% |
| COc1ccc(Cc2nc3ccccc3n2CC(=O)N/N=C/c2ccccc2)cc1OC | inactive: 4.34% |
| Cn1c(=O)n(CC(=O)Nc2ccccc2)c2ccccc21 | inactive: 0.99% |
| O=C(Nc1cc([As](=O)(O)O)ccc1O)c1ccccc1 | inactive: 6.56% |
| Cc1cc(C)c(CN2CCN(C(=O)Cn3cnc4c(OCc5ccccc5)ncnc43)CC2)c(C)c1 | inactive: 0.62% |
| C=CCc1cccc(CNc2nc3ccccc3n2CCN2CCOCC2)c1O | inactive: 4.93% |
| COc1ccc(N2CCn3c2nc2c3c(=O)n(CCCc3ccccc3)c(=O)n2C)c(OC)c1 | inactive: -2.02% |
| COc1ccccc1CNc1nc2ccccc2n1CCN1CCCCC1 | inactive: 0.44% |
| c1ccc(CN2CCC3(CC2)Nc2ccccc2S3)cc1 | inactive: -4.12% |
| COc1ccc(CNc2nc3ccccc3n2CCN2CCCCC2)c(OC)c1 | inactive: 3.57% |
| CCSc1nnc(NC(=O)Cn2cnc3c2c(=O)n(C)c(=O)n3C)s1 | inactive: -0.13% |
| Cc1nc2cc(C(F)(F)F)ccc2n1C1CCN(Cc2nnnn2Cc2ccc3c(c2)OCO3)CC1 | inactive: -8.02% |
| CC1CN(Cc2nc3c(c(=O)[nH]c(=O)n3C)n2CC(N)=O)CC(C)O1 (stereo unspecified) | inactive: 3.96% |
| Cn1c(=O)[nH]c(=O)c2c1nc(CN1CCN(c3ccccc3F)CC1)n2CC(N)=O | inactive: -0.37% |
| Cc1ccc(CNC(=O)CCNC(=O)N2CCn3c2nc2ccccc23)cc1 | inactive: 0.33% |
